In ChEMBL document CHEMBL3885861, “Open TG-GATES”:

Species: Rattus norvegicus
Assay: Open TG-GATES - Regimen: Single
Format: toxicity, organism-based, Sprague-Dawley
Design: regimen Single, gender Male, age 6 weeks
Conditions: in vivo, po, route gavage
[1] = 0 mg/kg, 3 h, tissue Blood, dose level Control
[2] = 0 mg/kg, 3 h, tissue Plasma, dose level Control
[3] = 0 mg/kg, 6 h, tissue Blood, dose level Control
[4] = 0 mg/kg, 9 h, tissue Plasma, dose level Control
[5] = 0 mg/kg, 24 h, tissue Blood, dose level Control
[6] = 30 mg/kg, 24 h, tissue Blood, dose level High

CNCCC(Oc1ccc(C(F)(F)F)cc1)c1ccccc1.Cl (configuration not stated) [FLUOXETINE HYDROCHLORIDE]
Hb [1]: 13.2 g/dL | TC [2]: 83.2 mg/dL | Hb [3]: 13.2 g/dL | MCV [3]: 66.9 fL | LDH (0 mg/kg, 6 h, tissue Plasma, dose level Control): 90.8 IU/L | Fbg (0 mg/kg, 9 h, tissue Blood, dose level Control): 244.6 mg/dL | LDH [4]: 107 IU/L | MCV [5]: 66.2 fL | RBC [5]: 598.6 x10_4/ul | AST (3 mg/kg, 3 h, tissue Plasma, dose level Low): 69.6 IU/L | PT (3 mg/kg, 6 h, tissue Blood, dose level Low): 12.5 s | Ca (3 mg/kg, 6 h, tissue Plasma, dose level Low): 11.5 mg/dL | RBC (3 mg/kg, 9 h, tissue Blood, dose level Low): 598.6 x10_4/ul | APTT (10 mg/kg, 24 h, tissue Blood, dose level Middle): 15.8 s | Cl (10 mg/kg, 24 h, tissue Plasma, dose level Middle): 104.1 meq/L | Mono (30 mg/kg, 3 h, tissue Blood, dose level High): 13.2% | Neu (30 mg/kg, 6 h, tissue Blood, dose level High): 18.6% | Hb (30 mg/kg, 9 h, tissue Blood, dose level High): 13.2 g/dL | Neu [6]: 15.8% | Plat [6]: 127 x10_4/uL | RBC [6]: 606.4 x10_4/ul | Ca (30 mg/kg, 24 h, tissue Plasma, dose level High): 10.7 mg/dL

COc1cc2ncnc(Nc3ccc(F)c(Cl)c3)c2cc1OCCCN1CCOCC1 [GEFITINIB]
MCV [1]: 64.9 fL | GLC [2]: 188.2 mg/dL | GLC [4]: 188.2 mg/dL | MCHC [5]: 32.3% | Hb (200 mg/kg, 6 h, tissue Blood, dose level Low): 12.4 g/dL | MCV (200 mg/kg, 9 h, tissue Blood, dose level Low): 63.1 fL | Hb (600 mg/kg, 3 h, tissue Blood, dose level Middle): 12.4 g/dL | MCHC (600 mg/kg, 24 h, tissue Blood, dose level Middle): 32.3% | Plat (2000 mg/kg, 24 h, tissue Blood, dose level High): 126.5 x10_4/uL | BUN (2000 mg/kg, 24 h, tissue Plasma, dose level High): 22.9 mg/dL
